This note sets out measurements from patent publication US10960087B2, “Compositions and methods for treatment of diabetic retinopathy” (NOVARTIS AG, priority 2007, dated 2021).

Amino acid sequences for entries named in this document (tags omitted). Residues count along the entry.
UniProt P05107, 23-769 limits assumed: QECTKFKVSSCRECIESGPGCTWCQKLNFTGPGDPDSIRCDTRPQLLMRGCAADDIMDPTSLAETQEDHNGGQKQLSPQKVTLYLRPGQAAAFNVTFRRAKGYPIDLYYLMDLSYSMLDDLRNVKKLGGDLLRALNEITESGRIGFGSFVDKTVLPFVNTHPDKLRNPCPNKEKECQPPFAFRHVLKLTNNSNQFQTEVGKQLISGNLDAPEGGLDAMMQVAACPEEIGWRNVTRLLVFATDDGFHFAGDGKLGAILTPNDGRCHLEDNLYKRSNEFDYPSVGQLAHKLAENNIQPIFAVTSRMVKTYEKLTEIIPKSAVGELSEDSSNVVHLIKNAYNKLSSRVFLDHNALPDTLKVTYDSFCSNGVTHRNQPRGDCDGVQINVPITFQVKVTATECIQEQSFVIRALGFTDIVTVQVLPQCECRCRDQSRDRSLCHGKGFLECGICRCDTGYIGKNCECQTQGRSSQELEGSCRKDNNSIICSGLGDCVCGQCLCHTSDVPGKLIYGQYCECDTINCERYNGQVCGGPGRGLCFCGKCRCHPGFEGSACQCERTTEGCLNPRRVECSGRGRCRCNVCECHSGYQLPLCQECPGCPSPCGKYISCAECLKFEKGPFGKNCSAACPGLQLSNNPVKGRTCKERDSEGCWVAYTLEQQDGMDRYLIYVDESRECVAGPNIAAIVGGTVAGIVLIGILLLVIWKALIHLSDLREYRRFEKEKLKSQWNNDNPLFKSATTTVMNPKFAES
UniProt P20701, 26-1170 limits assumed: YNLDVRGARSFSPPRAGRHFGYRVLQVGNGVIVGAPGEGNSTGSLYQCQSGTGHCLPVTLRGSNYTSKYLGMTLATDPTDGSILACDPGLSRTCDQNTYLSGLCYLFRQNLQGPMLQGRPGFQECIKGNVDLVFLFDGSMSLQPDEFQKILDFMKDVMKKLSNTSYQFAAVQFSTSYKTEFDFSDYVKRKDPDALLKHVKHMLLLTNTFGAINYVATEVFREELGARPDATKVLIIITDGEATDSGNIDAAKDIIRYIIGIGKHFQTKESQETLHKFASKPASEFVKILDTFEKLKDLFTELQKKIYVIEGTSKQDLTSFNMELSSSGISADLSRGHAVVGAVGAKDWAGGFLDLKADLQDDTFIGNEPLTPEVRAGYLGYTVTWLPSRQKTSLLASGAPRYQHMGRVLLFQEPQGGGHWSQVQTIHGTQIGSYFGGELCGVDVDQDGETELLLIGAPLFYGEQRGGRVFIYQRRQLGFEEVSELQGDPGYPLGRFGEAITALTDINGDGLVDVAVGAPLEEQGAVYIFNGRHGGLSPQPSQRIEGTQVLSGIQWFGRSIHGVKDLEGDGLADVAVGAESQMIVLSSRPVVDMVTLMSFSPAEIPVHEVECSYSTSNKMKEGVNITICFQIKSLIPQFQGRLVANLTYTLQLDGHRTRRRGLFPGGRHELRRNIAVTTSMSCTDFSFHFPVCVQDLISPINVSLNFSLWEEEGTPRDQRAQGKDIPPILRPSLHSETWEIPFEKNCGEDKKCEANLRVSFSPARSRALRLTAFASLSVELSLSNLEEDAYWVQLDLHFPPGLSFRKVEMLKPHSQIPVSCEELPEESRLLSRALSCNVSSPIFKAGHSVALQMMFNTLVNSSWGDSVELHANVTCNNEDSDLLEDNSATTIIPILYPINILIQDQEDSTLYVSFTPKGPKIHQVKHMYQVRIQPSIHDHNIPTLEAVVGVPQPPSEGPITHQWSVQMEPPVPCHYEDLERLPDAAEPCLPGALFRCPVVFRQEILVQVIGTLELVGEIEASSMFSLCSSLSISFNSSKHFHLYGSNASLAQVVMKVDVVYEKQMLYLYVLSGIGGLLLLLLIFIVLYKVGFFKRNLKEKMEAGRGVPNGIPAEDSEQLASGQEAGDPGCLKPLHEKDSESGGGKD

In test [1] the target is binding of ICAM-1-Ig to LFA-1 (Homo sapiens, UniProt P05107+P20701). The test is described as follows: LFA-1/ICAM-1 ELISA, antagonist competition. Background: An ELISA detects its analyte on a solid surface through an enzyme-linked reagent.
For test [2], the target named is binding of compound 2B to LFA-1 (Homo sapiens, UniProt P05107+P20701). The test is described as follows: LFA-1/small molecule ELISA, antagonist competition. Particulars: read-out: IC50, inhibition of binding of compound 2B to LFA-1, 25 nM compound 2B.

Turning to `NCCCCCC(=O)NCCCC[C@H](NC(=O)c1ccc(C(=O)NCc2cccc(O)c2)cc1Cl)C(=O)O`, in test [1], the “IC50 relative to that of compound 3, ICAM-1-Ig binding to LFA-1” value is “approximately 10 fold”. Moreover, the IC50 in test [2] was found to be 56 nM.

A word on the IC50: it is the concentration that gives 50% inhibition.
